Columns and labels:
Alpha carbonic anhydrase = Alpha carbonic anhydrase (Stylophora pistillata, UniProt B5SU02); experiment: Inhibition of Stylophora pistillata carbonic anhydrase by stopped-flow CO2 hydration assay
Carbonic anhydrase = Carbonic anhydrase (Stylophora pistillata, UniProt C0IX24); experiment: Inhibition of Stylophora pistillata carbonic anhydrase 2 by stopped-flow CO2 hydration assay

The chains behind the UniProt entries cited, without tags or fusion partners. Where a name states a change or a piece, a line headed by the entry shows the natural chain unless it says otherwise.
UniProt B5SU02: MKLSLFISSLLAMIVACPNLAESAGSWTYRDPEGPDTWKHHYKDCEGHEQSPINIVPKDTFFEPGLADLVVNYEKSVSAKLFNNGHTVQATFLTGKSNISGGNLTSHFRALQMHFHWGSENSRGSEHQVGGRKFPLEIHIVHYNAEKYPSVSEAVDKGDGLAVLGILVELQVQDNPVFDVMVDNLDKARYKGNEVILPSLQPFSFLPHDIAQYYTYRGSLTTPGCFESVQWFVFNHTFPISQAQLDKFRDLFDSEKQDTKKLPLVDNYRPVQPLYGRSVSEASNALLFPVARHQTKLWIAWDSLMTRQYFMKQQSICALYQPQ
UniProt C0IX24: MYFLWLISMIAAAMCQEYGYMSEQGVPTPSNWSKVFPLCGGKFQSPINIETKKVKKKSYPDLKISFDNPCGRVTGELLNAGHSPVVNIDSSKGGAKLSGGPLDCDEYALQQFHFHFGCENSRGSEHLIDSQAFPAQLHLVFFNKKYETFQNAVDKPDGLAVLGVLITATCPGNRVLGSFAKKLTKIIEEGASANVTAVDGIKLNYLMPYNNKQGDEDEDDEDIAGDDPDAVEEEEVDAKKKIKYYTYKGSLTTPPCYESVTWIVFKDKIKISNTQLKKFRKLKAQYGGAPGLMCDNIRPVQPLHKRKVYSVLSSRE

O=[As](O)(O)c1ccccc1
Ki (Alpha carbonic anhydrase): 0.78 nM | Ki (Carbonic anhydrase): 0.0672 nM
